Target: Mu-type opioid receptor (Homo sapiens, UniProt P35372)

Sequences of proteins named here, by UniProt entry; tags and fusion partners are left off.
UniProt P35372, whole entry: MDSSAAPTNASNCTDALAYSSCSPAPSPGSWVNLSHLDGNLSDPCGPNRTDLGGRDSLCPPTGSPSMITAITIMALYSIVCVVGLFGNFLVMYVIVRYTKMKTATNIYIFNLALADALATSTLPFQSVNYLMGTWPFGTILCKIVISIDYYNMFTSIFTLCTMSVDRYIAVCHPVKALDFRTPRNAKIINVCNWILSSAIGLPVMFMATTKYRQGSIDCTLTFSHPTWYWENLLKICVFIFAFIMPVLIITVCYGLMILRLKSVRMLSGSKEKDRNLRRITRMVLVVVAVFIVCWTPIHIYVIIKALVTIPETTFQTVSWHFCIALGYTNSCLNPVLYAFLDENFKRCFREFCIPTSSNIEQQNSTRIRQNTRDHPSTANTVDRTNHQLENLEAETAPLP

Work on CCC12CCN(CC3(O)CC3)C(Cc3ccc(O)cc31)C2(C)C (stereo unspecified) yielded a Ki of 810 pM.
